By UniProt entry, the sequences of proteins in these tests, tags left out.
UniProt P13612, whole entry, looked up: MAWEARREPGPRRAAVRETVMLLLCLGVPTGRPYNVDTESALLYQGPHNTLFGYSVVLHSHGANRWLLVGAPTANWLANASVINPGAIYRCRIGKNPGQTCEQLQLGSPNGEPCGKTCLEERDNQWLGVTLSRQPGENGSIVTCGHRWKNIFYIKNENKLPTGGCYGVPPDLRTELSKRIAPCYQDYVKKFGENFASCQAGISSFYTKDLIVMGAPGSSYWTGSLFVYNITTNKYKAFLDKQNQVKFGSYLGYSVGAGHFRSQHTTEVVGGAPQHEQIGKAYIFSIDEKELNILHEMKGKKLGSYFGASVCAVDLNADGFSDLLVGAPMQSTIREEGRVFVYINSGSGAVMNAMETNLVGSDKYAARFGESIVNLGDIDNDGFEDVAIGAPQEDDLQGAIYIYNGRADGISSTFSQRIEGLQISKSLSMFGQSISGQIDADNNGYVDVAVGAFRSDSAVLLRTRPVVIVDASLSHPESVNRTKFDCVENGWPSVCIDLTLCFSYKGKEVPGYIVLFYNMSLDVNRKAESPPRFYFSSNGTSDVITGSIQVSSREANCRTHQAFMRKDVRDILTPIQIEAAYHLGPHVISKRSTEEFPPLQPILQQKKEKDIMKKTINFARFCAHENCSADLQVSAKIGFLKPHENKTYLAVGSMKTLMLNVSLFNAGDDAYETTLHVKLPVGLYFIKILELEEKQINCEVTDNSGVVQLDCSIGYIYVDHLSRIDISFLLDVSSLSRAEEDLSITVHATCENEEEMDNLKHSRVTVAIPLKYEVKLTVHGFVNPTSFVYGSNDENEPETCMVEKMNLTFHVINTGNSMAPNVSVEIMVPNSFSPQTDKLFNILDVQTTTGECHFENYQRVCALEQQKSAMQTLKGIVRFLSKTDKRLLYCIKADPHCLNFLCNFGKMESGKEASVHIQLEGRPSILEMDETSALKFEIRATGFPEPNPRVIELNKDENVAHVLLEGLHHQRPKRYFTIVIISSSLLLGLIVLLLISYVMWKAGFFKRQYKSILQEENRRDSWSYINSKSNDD

The list shows a part of the results, in another mix than the full data. Results filed as inconclusive are left out. Calls of active or inactive are those of the source.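 Rule for the calls: active = inhibition above 50%; inconclusive = compound itself fluorescent, judged against control cell fluorescence; inactive = the rest.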
These compounds were tested against Integrin alpha-4 (Homo sapiens) (UniProt P13612) (assay: blockers of LDV-FITC ligand binding on VLA-4 – Jurkat cells, Mn2+ activated, primary screen (AID 529;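 note: 0% = Mn2+ stimulated cells lacking compound and 100% = ligand binding without Mn2+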)). Conditions: LDV-FITC binding with Mn2+, flow cytometry, active compounds read high, screened at 10 µM (by protocol), 100% = Mn2+-driven binding gain fully reversed.
O=P(Nc1nccs1)(c1ccccc1)c1ccccc1 was tested, and the inhibition was inactive: 2%. With Cc1nn(-c2ccccc2)c2c1P(=O)(N1CCOCC1)N(C)C(c1ccccc1)=N2 (stereo unspecified) the inhibition was inactive: -9.5%. For Clc1n[nH]nc1-c1nn[nH][15n]1, the inhibition was inactive: 1%. For CCOP1(=S)c2c(C)nn(CCC#N)c2N=C(c2ccccc2F)N1C (stereo unspecified), the inhibition was inactive: -12%. With COP1(=S)c2c(C)nn(CCC#N)c2N=C(c2ccc(F)cc2)N1C (stereo unspecified) the inhibition was inactive: 3%. For O=C(COc1ccccc1)OC1CN2CCC1CC2 (stereo unspecified), the inhibition was inactive: 4%.
